Experiment [1] addresses recombinant TNF (Thermo Fisher). The experiment in a line: cell-based or functional assay.
In experiment [2] the target is recombinant IL-17A (produced in-house in EBNA cells). The experiment in a line: cell-based or functional assay.
For experiment [3], the target named is cynomolgus TNF (cynomolgus) (UniProt P79337). Kind of experiment: SPR (BIAcore T200), construct captured by anti-human IgG Fc, antigen injected. On the technique in general: SPR reads the build-up and loss of mass on a sensor chip optically.
Experiment [4] has as its target cynomolgus IL-17A (cynomolgus). Described as above.
The target in the next experiment is human TNF (human) (UniProt P01375). The description is as above.
Another experiment addresses human IL-17A (human) (UniProt Q16552). The description is as above.

In general, Kd refers to the equilibrium constant for the complex coming apart. A word on the koff: it is the first-order rate constant of dissociation. A lower koff goes with a long-lived complex. Broadly, the kon is a measure of how fast the partners come together.

On to “HC2C1 (bispecific construct, Fynomer 2C1 at the C-terminus of the heavy chain of the anti-TNF antibody) (bispecific antibody)”, for which, in experiment [1], the Apparent IC50 for the inhibition of IL-17A/TNF-induced IL-6 production in Normal Human Dermal Fibroblasts worked out at 0.021 nM. The Apparent IC50 for the inhibition of IL-17A/TNF-induced IL-6 production in Normal Human Dermal Fibroblasts in experiment [2] worked out at 0.021 nM. In experiment [3], this substance had a Kd of 0.1 nM, a koff of 8.1e-05 s⁻¹ and a kon of 820000 M⁻¹ s⁻¹.
In the case of “HC2C1 (bispecific construct, Fynomer 2C1 at the C-terminus of the heavy chain of the anti-TNF antibody) (bispecific antibody; other documents disagree on this pair)”, the figures for the Kd (in experiment [4]; with human TNF (human); in the experiment with human IL-17A (human)) were 0.448 nM, 0.07 nM and 0.252 nM, respectively. In addition, the results for the koff (in experiment [4]; in the experiment with human TNF (human); with human IL-17A (human)) were 0.00016 s⁻¹, 2.8e-05 s⁻¹ and 6.6e-05 s⁻¹, respectively. Moreover, the kon in experiment [4] was 360000 M⁻¹ s⁻¹; with human TNF (human) it was 390000 M⁻¹ s⁻¹; with human IL-17A (human) it was 260000 M⁻¹ s⁻¹.
Take “LC2C1 (bispecific construct, Fynomer 2C1 at the C-terminus of the light chain of the anti-TNF antibody) (bispecific antibody)”: the Apparent IC50 for the inhibition of IL-17A/TNF-induced IL-6 production in Normal Human Dermal Fibroblasts in experiment [1] worked out at 0.01 nM. Further, in experiment [2], the Apparent IC50 for the inhibition of IL-17A/TNF-induced IL-6 production in Normal Human Dermal Fibroblasts is 0.01 nM. In experiment [3], this substance returned a Kd of 0.14 nM and an on-rate constant (kon) of 630000 M⁻¹ s⁻¹.
In experiment [4], “LC2C1 (bispecific construct, Fynomer 2C1 at the C-terminus of the light chain of the anti-TNF antibody) (bispecific antibody; other documents disagree on this pair)” displayed a Kd of 0.398 nM and a kon of 120000 M⁻¹ s⁻¹. Moreover, in the experiment with human IL-17A (human), the dissociation constant Kd was determined as 0.268 nM and the kon came out at 230000 M⁻¹ s⁻¹.

The record behind these values is patent publication EP2597102A1.
